Assay results as given in patent US20020013362A1 (priority 2000, published 2002).

System: patients with melanoma
Conditions: 17 patients

## CC(=O)O[C@H]1C(=O)[C@@]2(C)[C@H]([C@H](OC(=O)c3ccccc3)[C@]3(O)C[C@H](OC(=O)[C@H](O)[C@@H](NC(=O)c4ccccc4)c4ccccc4)C(C)=C1C3(C)C)[C@]1(OC(C)=O)CO[C@@H]1C[C@@H]2O [paclitaxel]
90 mg/M^2 Q4 days x3
  Grade 3 sensory changes (objective sensory loss or paresthesias interfering with function): 1 patient
90 mg/M^2 Q4 days x3 (270 mg/M^2 q 21 days)
  Grade 4 toxicity, number of times: 7 times
